Data from PMC12111632, “Expression, purification and preliminary pharmacological characterization of the Plasmodium falciparum membrane-bound pyrophosphatase type 1” (PLOS One, 2025).
Structures can show the parent of a compound that is named as a salt.

Protein sequences, listed by entry. Tags and fused reporters are not part of them.
UniProt Q8IKR1, entry or part of it: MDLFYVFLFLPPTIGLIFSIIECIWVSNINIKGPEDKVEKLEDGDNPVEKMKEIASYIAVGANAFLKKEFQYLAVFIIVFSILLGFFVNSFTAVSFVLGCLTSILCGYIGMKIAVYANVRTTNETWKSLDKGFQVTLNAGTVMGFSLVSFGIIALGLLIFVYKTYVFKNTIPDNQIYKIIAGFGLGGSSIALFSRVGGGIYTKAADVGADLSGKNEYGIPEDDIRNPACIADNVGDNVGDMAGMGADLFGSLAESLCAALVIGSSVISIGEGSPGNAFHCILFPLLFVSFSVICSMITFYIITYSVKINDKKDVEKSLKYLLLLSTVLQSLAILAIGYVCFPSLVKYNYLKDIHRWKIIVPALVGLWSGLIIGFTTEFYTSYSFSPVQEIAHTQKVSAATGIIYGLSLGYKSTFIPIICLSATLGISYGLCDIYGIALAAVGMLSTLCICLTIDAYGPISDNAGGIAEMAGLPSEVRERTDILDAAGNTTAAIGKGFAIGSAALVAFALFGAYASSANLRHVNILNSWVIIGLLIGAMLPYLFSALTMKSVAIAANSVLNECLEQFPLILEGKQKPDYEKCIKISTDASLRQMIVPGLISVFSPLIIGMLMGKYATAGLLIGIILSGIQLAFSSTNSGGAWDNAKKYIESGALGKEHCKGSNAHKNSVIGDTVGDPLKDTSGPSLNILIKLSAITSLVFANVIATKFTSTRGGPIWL

Molecular target: PfPPase-VP1 (Plasmodium falciparum, UniProt Q8IKR1)
Assay type: biochemical
Conditions: purified PfPPase-VP1 reconstituted in liposomes, Tris-HCl pH 7.5, 50 °C, 45 min, triplicate; interval given
Description: The activity of PfPPase-VP1 was determined using a molybdenum blue colorimetric activity assay in 96-well plate format to measure the amount of phosphate production, as previously described for TmPPase but with modifications to pH (5.2–10) and temperature conditions (20–70°C) as described below. To determine the optimal pH for PfPPase-VP1 activity, 5 μL of 2.5 mg/mL total membrane protein was added to the reaction mixture (60 mM of various buffers (below) with pHs ranging from 5.2–10.0, 3 mM MgCl2, 100 mM KCl, and 10 mM NaCl, 100 mM NaF, 5 μM Gramicidin D), to a final volume of 40 μL. Buffers were trisodium-citrate (pH 5.2), MES (pH 6.5), Tris-HCl (pH 6.8, 7.5, 8.0, and 8.8) and glycine-NaOH (pH 10.0). A control sample was prepared by heating the membrane faction at 90 °C for 5 min to inactivate the enzyme. The reaction mixture was incubated at 30 °C for 5 min in a 96-well heating block. After incubation, 10 µl of 2 mM sodium pyrophosphate (PPi) was added, mixed, and incubated for 10 min. […] Absorbance was measured at 860 nm on a MultiSkan Go UV/Vis spectrophotometer (Thermo Scientific). The specific activity of PfPPase-VP1 in the membrane was calculated using our previously published formula [23]. […] The catalytic reaction was run for 45 min at 50 °C, and the phosphate production was determined as described above. […]

For `OC(c1cc(C(F)(F)F)nc2c(C(F)(F)F)cccc12)C1CCCCN1` (stereo not shown) [Compound 5, Mefloquine hydrochloride], the “IC50 (PfPPase, μM)” value was “Inactive”.
